1 substance from patent EP2746402A1, “Method of prognosis of Alzheimers disease and substrates for use therein” (Academisch Medisch Centrum, priority 2013, dated 2014) can be followed below.

In series [1] the test system is HEK293 cytosolic fractions. The series is described as follows: Quenched Aβ peptide (qAβ) degradation assay in HEK293 cytosolic fractions, with and without protease inhibitors. The series is classed as biochemical. The source says:
We developed a sensitive Aβ degradation assay by generating a quenched Aβ40 peptide containing a small fluorescein group and a quenching dabcyl group (Reits et al., 2004) flanking the KLVFF sequence present in the middle of the Aβ peptides that is a critical region for aggregation (Fig. 1A) (Tjernberg et al., 1996). A quenched Aβ42 peptide was difficult to synthesize as the peptide was too aggregation-prone during synthesis, preventing efficient labeling with the small fluorophore. […] The qAβ peptides were added to cytoplasmic fractions of mildly lysed HEK293 cells, thereby preventing contamination with extracellular membrane-bound or lysosomal proteases, resulting in an increase in fluorescent signal (Fig. 1B). To identify which proteases play a role in this Aβ clearance machinery, different protease inhibitors were added to the cytosolic fractions prior to adding the qAβ. […]
HEK cells were lysed in 25 µM digitonin (Sigma) in KMH buffer (110 mM KAc, 2 mM MgAc and 20 mM Hepes-KOH, pH 7.2). Human and mouse brain hippocampal tissue was lysed in ± 400 µl (adjusted to the amount of tissue) of homogenization buffer (50 mM Tris/HCl pH 7.5, 250 mM sucrose, 5 mM MgCl2 and freshly added 2 mM ATP, 1 mM DTT and 0.025 % digitonin (Sigma)). Tissue was homogenized on ice in homogenization buffer using a homogenizer. Cell lysates were incubated for 30 minutes on ice and centrifuged for 15 minutes at 14.000 rpm at 4 °C.
HFIP-treated aliquots of Aβ40 were resuspended in DMSO followed by sonication for 10 minutes, immediately before use. 75 ng (340 nM) of quenched Aβ40 was added to 5 µg protein from the cell lysates in KMH buffer (110 mM KAc, 2 mM MgAc and 20 mM Hepes-KOH, pH 7.2) to a total volume of 50 µl. […] Degradation of the peptide was analyzed at 37°C using the FLUOstar OPTIMA (BMG Labtec.).

Series [2] can be described thus: Electron microscopy of Aβ peptide oligomerisation. It counts as physicochemical. The note with it: at 37°C, over time.
The subject of series [3] is human hippocampal lysates. The series is described as follows: Quenched Aβ peptide (qAβ) degradation assay in human hippocampal lysates at different Braak stages. The series is classed as biochemical. The note with it: Braak VI compared to Braak 0. The method, then: Since the hippocampus is highly susceptible to Aβ accumulation, we examined whether the ability to degrade Aβ is affected in sporadic (sAD) using human hippocampal tissue of post-mortem brains with varying Braak stages. Included were Braak 0 (control, no AD) and Braak I-VI. When the ability to degrade qAβ was determined for each Braak stage (Fig. 2A, solid bars), a strong decrease in qAβ degradation rate was already observed in Braak stage I (t-test, two-tailed, p=0.03), which further decreased during the progression to Braak stage II (t-test, two-tailed, p=0.01). […] In Braak VI, qAβ degradation rate decreased with more than 65% compared to Braak 0. […] Also oligomerized Aβ was less well degraded with increasing Braak stage (Fig. 2B). AD progression can also be classified by plaque distribution in well defined brain areas giving a particular amyloid score, ranging from O (no plaques) to C. Similar to increasing Braak stages, the rate of qAβ degradation decreased with increasing amyloid score, being significant for hippocampal fractions of brains classified with amyloid score C (t-test, two-tailed, p=0.017) (Fig. 2C). […]
HFIP-treated aliquots of Aβ40 were resuspended in DMSO followed by sonication for 10 minutes, immediately before use. […] Degradation of the peptide was analyzed at 37°C using the FLUOstar OPTIMA (BMG Labtec.).

Regarding “DAEFRHDSGYE(q)HHQKLVFFA(f)DVGSNKGAIIGLMVGGVV [qAβ]”, the “qAβ degradation (fluorescence)” value in series [1] (monomeric qAβ in HEK293 cytosolic fractions, without inhibitor) is on record as “is degraded”; in series [1] (qAβ in KMH buffer only, no lysate) it was “not”. In addition, the “degradation of pre-incubated qAβ (fluorescent levels)” value in series [1] (qAβ pre-incubated at 37 °C for 2-6 hours to oligomerize, then added to HEK293 cytosolic fraction) is recorded as “Reduced fluorescent levels”. In addition, in series [2], the “oligomerisation (electron microscopy)” value was “increased oligomerisation with time”. The “decrease of qAβ degradation rate” value in series [3] was “more than 65%”.
